The values that follow come from patent US4707477A, “Treating and preventing agent for ischemic cardiac disease and arrhythmia” (priority 1985, dated 1987).

The nature of the data set: Acute toxicity, LD50, Wistar rat. The conditions noted are these: in vivo, po, male.

Structures can show the parent of a compound that is named as a salt.

Compound `CCCC(=O)N1CCCN(c2nc(N)c3cc(OC)c(OC)cc3n2)CC1` [bunazosin hydrochloride] gave an LD50 of 980 mg/kg.
